For this assay, the target named is calcineurin (CNA/B) (UniProt Q08209). Kind of assay: ITC. In general terms: In ITC the heat of successive injections is recorded.

For orientation: Kd means the constant that tells how readily two partners part at equilibrium. Consider “RCAN1^128-164 with PSVVVH (SEQ ID NO: 13) mutated to PVIVIT (SEQ ID NO: 19) (peptide)”, for which the Kd turned out to be 0.15 µM and the fold increase in affinity (against RCAN1^128-164) turned out to be 2 fold.

Source of the values: patent US20160038571A1.
